Two compounds from article PMC8571951, “An activity‐based bioprobe differentiates a novel small molecule inhibitor from a LOXL2 antibody and provides renewed promise for anti‐fibrotic therapeutic strategies” (Clinical and Translational Medicine, 2021) can be followed below.

By UniProt entry, the sequences of proteins in these tests, tags left out. Residues count along the entry.
UniProt Q9Y4K0, 26-774 limits assumed: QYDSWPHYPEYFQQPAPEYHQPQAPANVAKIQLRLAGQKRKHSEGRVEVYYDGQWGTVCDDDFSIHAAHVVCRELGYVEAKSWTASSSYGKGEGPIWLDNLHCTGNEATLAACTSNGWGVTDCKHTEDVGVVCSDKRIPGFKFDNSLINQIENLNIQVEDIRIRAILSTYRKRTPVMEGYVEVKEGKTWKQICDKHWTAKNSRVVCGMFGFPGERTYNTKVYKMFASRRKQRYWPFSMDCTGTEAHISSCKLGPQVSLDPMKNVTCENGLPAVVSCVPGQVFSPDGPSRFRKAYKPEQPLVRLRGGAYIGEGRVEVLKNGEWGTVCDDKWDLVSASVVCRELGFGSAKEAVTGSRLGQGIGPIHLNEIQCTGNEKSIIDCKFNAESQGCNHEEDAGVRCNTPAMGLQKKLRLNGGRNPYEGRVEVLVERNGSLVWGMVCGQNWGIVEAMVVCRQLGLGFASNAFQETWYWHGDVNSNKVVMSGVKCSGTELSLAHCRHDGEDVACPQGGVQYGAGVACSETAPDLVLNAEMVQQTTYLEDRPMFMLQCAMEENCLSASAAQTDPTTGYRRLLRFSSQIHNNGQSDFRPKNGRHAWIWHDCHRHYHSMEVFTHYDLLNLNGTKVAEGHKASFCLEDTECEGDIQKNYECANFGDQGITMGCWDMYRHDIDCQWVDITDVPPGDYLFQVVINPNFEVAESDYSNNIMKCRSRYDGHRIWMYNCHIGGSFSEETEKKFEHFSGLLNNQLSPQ
UniProt Q08397, 96-574 limits assumed: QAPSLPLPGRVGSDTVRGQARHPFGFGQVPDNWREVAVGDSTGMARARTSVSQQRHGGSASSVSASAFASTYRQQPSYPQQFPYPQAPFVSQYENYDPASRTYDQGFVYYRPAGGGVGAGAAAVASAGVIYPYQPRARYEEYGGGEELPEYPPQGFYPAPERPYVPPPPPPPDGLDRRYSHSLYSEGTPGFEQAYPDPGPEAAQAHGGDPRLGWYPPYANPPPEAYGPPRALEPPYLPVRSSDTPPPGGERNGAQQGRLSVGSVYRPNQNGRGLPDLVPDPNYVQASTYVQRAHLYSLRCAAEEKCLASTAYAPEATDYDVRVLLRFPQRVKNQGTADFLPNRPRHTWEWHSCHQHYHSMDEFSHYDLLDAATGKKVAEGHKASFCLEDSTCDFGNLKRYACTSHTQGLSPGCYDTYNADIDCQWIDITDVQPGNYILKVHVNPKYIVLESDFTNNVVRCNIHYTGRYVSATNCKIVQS
UniProt P58215, 26-753 limits assumed: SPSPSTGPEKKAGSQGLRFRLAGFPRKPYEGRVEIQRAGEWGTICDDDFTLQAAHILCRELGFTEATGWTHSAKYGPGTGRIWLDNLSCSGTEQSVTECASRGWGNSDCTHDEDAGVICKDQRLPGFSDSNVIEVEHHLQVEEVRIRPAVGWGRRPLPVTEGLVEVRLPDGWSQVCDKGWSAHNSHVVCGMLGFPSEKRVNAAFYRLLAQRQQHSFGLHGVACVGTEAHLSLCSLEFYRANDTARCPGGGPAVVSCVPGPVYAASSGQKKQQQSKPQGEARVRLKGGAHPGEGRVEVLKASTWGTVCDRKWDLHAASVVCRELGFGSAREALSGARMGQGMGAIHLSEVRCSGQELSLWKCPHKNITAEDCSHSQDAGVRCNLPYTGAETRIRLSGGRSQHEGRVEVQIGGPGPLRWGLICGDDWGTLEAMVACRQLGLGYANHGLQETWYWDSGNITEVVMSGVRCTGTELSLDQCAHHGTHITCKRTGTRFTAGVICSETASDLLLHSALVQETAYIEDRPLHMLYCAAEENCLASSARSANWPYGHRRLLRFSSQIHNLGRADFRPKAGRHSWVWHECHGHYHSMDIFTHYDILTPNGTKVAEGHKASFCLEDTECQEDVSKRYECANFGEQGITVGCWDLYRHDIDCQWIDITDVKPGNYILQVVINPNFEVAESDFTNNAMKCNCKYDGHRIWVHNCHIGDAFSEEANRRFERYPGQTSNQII

One test has as its target Recombinant human LOXL2 (Homo sapiens, UniProt Q9Y4K0). Briefly: Standard Amplex Red assay, rh LOXL2 (putrescine substrate). The conditions noted are these: read-out: Recombinant human LOXL2 IC50, 30 min pre-incubation. The source says:
(§1) FIGURE 1 Characteristics of the activity‐based probe (ABP) PXS‐5878. (A) Chemical structure of PXS‐5878, with functional subunits denoted with different colours. The fluoroallylamine moiety (blue) was designed to interact with the lysine tyrosylquinone (LTQ) co‐factor within the lysyl oxidase active sites. An extended linker (green) was incorporated to provide optimal separation between the reactive functional group and the tag, avoiding unfavourable steric hindrance. Biotin was selected as a tag, with higher sensitivity found to be achieved using a double tag (red), resulting in PXS‐5878 as the preferred ABP. (B) Concentration‐dependent inhibition of recombinant human (rh) lysyl oxidase‐like 1‐4 (LOXL1‐4) and native bovine LOX in a standard Amplex Red assay with 30 min pre‐incubation; n = 3–4 independent experiments, standard error of mean (SEM). Native bovine LOX was used as a surrogate for human LOX as both enzymes have similar pharmacology for fluoroallylamines.[2], [9] (C) Irreversible nature of PXS‐5878 enzyme inhibition confirmed using a jump dilution assay. […]
(§2) FIGURE 2 Characteristics of PXS‐5338 and inhibition of lysyl oxidase‐like 2 (LOXL2) enzymatic activity in vitro and in vivo. […] (B) Tissue levels of PXS‐5338 measured 1 and 4 h after a single oral dose of 30 mg/kg in the rat. […]

For the next test, the target named is Recombinant human LOXL1 (Homo sapiens, UniProt Q08397). Briefly: Standard Amplex Red assay, rh LOXL1. The conditions noted are these: read-out: Recombinant human LOXL1 IC50, 30 min pre-incubation.
Source text: as §1, §2

In test [1] the target is T1, LOXL3 (Homo sapiens, UniProt P58215). Briefly: Standard Amplex Red assay, rh LOXL3. The conditions noted are these: read-out: Recombinant human LOXL3 IC50, 30 min pre-incubation.
Source text: as §1, §2

A further test concerns the target rh LOXL1 (Homo sapiens, UniProt Q08397). Description: Jump dilution assay, rh LOXL1. The conditions noted are these: 10 × IC50 for 30 min, diluted 100x. From the text: (§3) FIGURE 1 Characteristics of the activity‐based probe (ABP) PXS‐5878. (A) Chemical structure of PXS‐5878, with functional subunits denoted with different colours. The fluoroallylamine moiety (blue) was designed to interact with the lysine tyrosylquinone (LTQ) co‐factor within the lysyl oxidase active sites. An extended linker (green) was incorporated to provide optimal separation between the reactive functional group and the tag, avoiding unfavourable steric hindrance. Biotin was selected as a tag, with higher sensitivity found to be achieved using a double tag (red), resulting in PXS‐5878 as the preferred ABP. (B) Concentration‐dependent inhibition of recombinant human (rh) lysyl oxidase‐like 1‐4 (LOXL1‐4) and native bovine LOX in a standard Amplex Red assay with 30 min pre‐incubation; n = 3–4 independent experiments, standard error of mean (SEM). Native bovine LOX was used as a surrogate for human LOX as both enzymes have similar pharmacology for fluoroallylamines.[2], [9] (C) Irreversible nature of PXS‐5878 enzyme inhibition confirmed using a jump dilution assay. Enzyme (rh LOXL1, rh LOXL2 or LOXL3) was pre‐incubated with 10 × IC50 of PXS‐5878 for 30 min, then diluted 100x and remaining activity assessed by Amplex Red assay. […] Each value is an average of three experiments. […]

The target of the next test is rh LOXL2 (Homo sapiens, UniProt Q9Y4K0). Description: Jump dilution assay, rh LOXL2. The settings on record: 10 × IC50 for 30 min, diluted 100x.
Source text: as §1, with “[9]” for “[9] (C) Irreversible nature of PXS‐5878 enzyme inhibition confirmed using a jump dilution assay.”
For fluoroallylamine-based inhibitors, replacement of fluorine with hydrogen (leading to the corresponding des-fluoro structures) results in a drop in potency and a switch from irreversible to reversible inhibition. […] (B) For PXS-5878, removal of the fluoro moiety in a simplified analogue results in a significant drop in potency for LOXL2, meaning (ir)reversibility cannot be accurately measured.

Test [2] has as its target T1, LOXL3. Description: Jump dilution assay, LOXL3. The conditions noted are these: 10 × IC50 for 30 min, diluted 100x.
Source text: as §3

As to `NC/C=C/CS(=O)(=O)c1ccccc1`, on Recombinant human LOXL2, the concentration for half-maximal inhibition (IC50) (commonly the concentration needed to halve the response being measured) is 8 µM.

On to `Cc1c(-c2cccc(S(=O)(=O)N(C)C)c2)c2cc(C(=O)N(C)C)ccc2n1C/C=C/CN`, for which the values for the IC50 on Recombinant human LOXL1, on Recombinant human LOXL2 and at LOXL3 [1] were 2470 nM, 0.464 µM and 698 nM, respectively. The “Recovery of enzyme activity after jump dilution” value on rh LOXL1, at rh LOXL2 and on LOXL3 [2] was “enzyme activity almost fully recovered” throughout.
